Entries after “also recorded” stand apart in the source; their conditions may differ.
Tested on: CD4+ T-cells and dendritic cells
Assay: I-MUNE assay: CD4+ T-cell proliferation to 15-mer peptide sets presented by dendritic cells
Assay type: cell-based, human
Design: Structure value: scale not given here
Conditions: for Response/Peptide: SI>2.95; for CD4+ T-cell epitopes identified: in words
Procedure: All peptides were obtained from a commercial source (Mimotopes, San Diego, C-A). For the I-MUNE® assay system described herein, 15-mer peptides offset by 3 amino acids that described the entire sequence of the proteins of interest were synthesized in a multipin format (See, Maeji et al., J. Immunol. Meth., 134:23-33 [1990]). Peptides were resuspended in DMSO at approximately 1 to 2 mg/ml, and stored at −70° C. prior to use. Each peptide was tested at least in duplicate, although for small peptide sets (e.g., Ber e 1), the peptides were routinely tested in triplicate. The results for each peptide were averaged and the stimulation index (SI) was calculated for each peptide.
Volunteer donor human blood buffy coat samples were obtained from two commercial sources (Stanford Blood Center, Palo Alto, Calif., and the Sacramento Medical Foundation, Sacramento, Calif.). Buffy coat samples were further purified by density separation. Each sample was HLA typed for HLA-DR and HLA-DQ using a commercial PCR-based kit (Bio-Synthesis). […] However, the donor pool did show evidence of slight enrichments for ethnicities common to the San Francisco Bay Area.
Monocytes were purified by adherence to plastic in AIM V medium (Gibco/Life Technologies). Adherent cells were cultured in AIM V media containing 500 units/ml of recombinant human IL-4 (Endogen) and 800 units/ml recombinant human GM-CSF (Endogen) for 5 days. On day 5, recombinant human IL-1α (Endogen) and recombinant human TNF-α (Endogen) were added to 50 units/ml and 0.2 units/ml, respectively. On day 7, the fully matured dendritic cells were treated with 50 μg/ml mitomycin C (Sigma) for 1 hour at 37° C. Treated dendritic cells were dislodged with 50 mM EDTA in PBS, washed in AIM V medium, counted, and resuspended in AIM V media at 2×10^5 cells/ml.
CD4^+ T-cells were purified by negative selection from frozen aliquots of human peripheral blood mononuclear cells (PBMC) using Cellect CD4 columns (Cedarlane). CD4^+ T-cell populations were routinely >80% pure and >95% viable as judged by trypan blue (Sigma) exclusion. CD4^+ T-cells were resuspended in AIM V media at 2×10^6 cells per ml.
CD4^+ T-cells and dendritic cells were plated in round-bottomed 96 well format plates at 100 μl of each cell mix per well. Peptide was added to a final concentration of approximately 5 ug/ml in 0.25-0.5% DMSO. Control wells contained 0.5% DMSO without added peptide. Each peptide was tested in duplicate. Cultures were incubated at 37° C., in 5% CO2 for 5 days. On day 5, 0.5 uCi of tritiated thymidine (NEN DuPont) was added to each well. On day 6, the cultures were harvested onto glass fiber mats using a TomTec manual harvester (TomTec), then processed for scintillation counting. Proliferation was assessed by determining the average counts per minute (CPM) value for each set of duplicate wells (TriLux Beta). This method is also described in U.S. Pat. No. 6,218,165 and Stickler et al., J. Immunother. 23: 654-660 (2000), both of which are herein incorporated by reference.
For each individual buffy coat sample, the average CPM values obtained in the I-MUNE® assay for all of the peptides were analyzed. The average CPM values for each peptide were divided by the average CPM value for the control (DMSO only) wells to determine the “stimulation index” (SI). Donors were tested with each peptide set until an average of at least two responses per peptide were compiled. The data for each protein was graphed showing the percent responders to each peptide within the set. A positive response was collated if the SI value was equal to or greater than 2.95. This value was chosen as it approximates a difference of three standard deviations in a normal population distribution. For each protein assessed, positive responses to individual peptides by individual donors were compiled. To determine the background response for a given protein, the percent responders for each peptide in the set were averaged and a standard deviation was calculated. […]

[1] = Table 3, Stanford and Sacramento donors

Substance	structure value, in words	Average Background (Table 2)	Number of epitope regions (Table 2)	Response per peptide (Table 2)	Structure value (Table 2)	Background % (Table 3)	Response/Peptide (Table 3)	Structure value [1]	background response (average percent responders per peptide, +/− sd where given)	CD4+ T-cell epitopes identified (listed as human β2-microglobulin)	CD4+ T-cell epitopes identified (listed as human β-2 microglobulin)	CD4+ T-cell epitopes identified (listed as β-2 microglobulin)	Background +/− sd (Table 5, background response value)	Responses/peptide found (Table 5, determined experimentally)	Average percent response to epitope peptide (Table 6, repeat tests of the epitope peptide on discrete donor groups)
B2-microglobulin: human β2-microglobulin, negative control [reference compound]	low	3.9	0	3.39	0.39	3.9%	3.38	0.39	3.90+/−1.82%	None of the peptide responses were significant; also recorded: did not identify any epitopes	no epitopes were found	no prominent epitope responses were found			
hIFN-B: human interferon-beta	comparatively high	3.17	1	2.79	0.75	3.17%	2.79	0.75					3.17 +/− 3.28	2.79	16.41%

— patent US20080220450A1, “Population Based Prediction Methods for Immune Response Determinations and Methods for Verifying Immunological Response Data” (Danisco US, Inc., Genencor Division, priority 2004, published 2008)
